Data as given in patent publication US9776991B2, “Thienomethylpiperazine derivatives as inhibitors of soluble epoxide hydrolase” (SANOFI, priority 2013, dated 2017).

By UniProt entry, the sequences of proteins in these tests, tags left out.
UniProt P34913, whole entry: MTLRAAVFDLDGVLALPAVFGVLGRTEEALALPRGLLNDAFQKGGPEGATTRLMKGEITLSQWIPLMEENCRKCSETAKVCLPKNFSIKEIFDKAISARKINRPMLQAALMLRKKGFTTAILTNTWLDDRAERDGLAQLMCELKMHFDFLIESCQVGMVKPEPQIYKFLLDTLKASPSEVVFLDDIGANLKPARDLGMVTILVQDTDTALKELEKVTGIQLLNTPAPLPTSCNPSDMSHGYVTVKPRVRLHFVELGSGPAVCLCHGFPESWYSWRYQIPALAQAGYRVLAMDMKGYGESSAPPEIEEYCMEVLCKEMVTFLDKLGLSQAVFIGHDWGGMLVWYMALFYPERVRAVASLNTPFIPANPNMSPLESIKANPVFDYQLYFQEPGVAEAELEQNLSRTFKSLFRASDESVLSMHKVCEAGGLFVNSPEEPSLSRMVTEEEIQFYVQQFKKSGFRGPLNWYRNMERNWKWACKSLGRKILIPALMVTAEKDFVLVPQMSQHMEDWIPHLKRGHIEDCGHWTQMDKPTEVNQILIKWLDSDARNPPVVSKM

Biological target: recombinant sEH (soluble epoxide hydrolase, EPHX2) (Homo sapiens (Human), UniProt P34913)
Test: biochemical fluorometric sEH inhibition assay with Phome substrate
Details: read-out: sEH IC50; recombinant sEH purified from Sf9 insect cells, 2 nM sEH, 5 μM Phome, 60 minutes at 30° C.
Protocol: Compounds were tested in a biochemical screening assay using recombinant sEH purified from Sf9 insect cells and an artificial substrate, (3-phenyl-oxiranyl)-acetic acid cyano-(6-methoxy-naphtalen-2-yl)-methyl ester, Phome. The biochemical assay was performed in analogy to a fluorometric described in the literature (P. D. Jones et al., Anal. Biochem. 2005, 343, 66-75). The assay principle bases on the sEH-catalyzed hydrolysis of an artificial α-cyano-ester substrate. O-deacetylation liberates a cyanohydrin intermediate that rapidly decomposes to the highly fluorescent 6-methoxy-2-naphtaldehyde. To discriminate sample autofluorescence, the assay was carried out as a kinetic measurement with two time points. The first measurement is performed immediately before addition of the substrate and the […] measurement is done after completion of the assay. The assay format is either in 96- or in 384-well format.
Details of the assay using a 96-well plate format are described below. 40 μl recombinant sEH enzyme and 5 μl test compound are pre-incubated for 15 minutes at 30° C. […]
Fluorescence is measured with any suitable detector for instance a TECAN Safire or Tecan Ultra at […]. % inhibition of recombinant sEH activity is used for calculation of corresponding IC50 values as illustrated and described in the examples. […]

IC50: 83.2 nM
SMILES: O=C(NCc1ccc(Cl)cc1Cl)c1cnc(CN2CCN(C(=O)c3ncccc3O)CC2)s1
